2 compounds from the supplement of paper PMC9334596 can be followed below.

Shown are results outside the selection of highest values, which stands elsewhere.

The test deals with mPer2Luc MEF. As to the kind of experiment: PER2::LUC luminescence relative to vehicle control (fold of vehicle); higher = higher PER2::LUC reporter signal. As to conditions: 10 µM. In a few lines: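 In 384-well plates, ~3000 mPer2Luc reporter mouse embryonic fibroblasts per well were cultured in DMEM with 10% FBS at 37 °C and 5% CO2 for 48 h before compounds from commercial libraries were added at 10 μM. ONE-Glo luciferase readings were taken 24 h and 30 h after treatment. Each value is PER2::LUC luminescence given as fold of vehicle control.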

In the case of `NCc1ccc(OCCCc2sc(-c3ccc4c(c3)/C(=N/Nc3nc5ccccc5s3)CCC4)nc2C(=O)O)cc1`, the “PER2::LUC luminescence” value came to 0.883 (time after treatment 24 h) and 0.807 (time after treatment 30 h).

Regarding `COc1c2ccccc2nc2occc12`, the “PER2::LUC luminescence” value reads like this: (time after treatment 24 h) 1.14; (time after treatment 30 h) 1.07.
